Biological target: Kappa receptors (Cavia porcellus, UniProt P41144)
Experiment: Kappa opiate receptor binding assay with [3H]bremazocine in the presence of DAGO and DSTLE
Conditions: guinea pig brain; determined in independent experiments

Chains of the proteins cited; added tags and fusions are not shown. Lines headed by an entry give the natural chain unless they say otherwise; changes in a name come on top.
UniProt P41144: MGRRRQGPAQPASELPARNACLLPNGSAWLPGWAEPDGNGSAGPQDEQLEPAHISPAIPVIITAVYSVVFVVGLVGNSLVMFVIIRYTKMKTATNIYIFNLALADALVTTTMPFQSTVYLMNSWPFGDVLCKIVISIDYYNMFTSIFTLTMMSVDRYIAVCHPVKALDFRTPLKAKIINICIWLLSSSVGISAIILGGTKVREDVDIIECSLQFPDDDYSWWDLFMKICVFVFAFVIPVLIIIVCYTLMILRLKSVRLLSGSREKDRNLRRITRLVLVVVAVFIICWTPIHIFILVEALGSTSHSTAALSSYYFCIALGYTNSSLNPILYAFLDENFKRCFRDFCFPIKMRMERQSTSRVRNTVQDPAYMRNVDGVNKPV

For `CCC12CCN(CC3(O)CC3)C(Cc3ccc(O)cc31)C2(C)C` (stereo not shown) [[^3H]Bremazocine], the Kd was 0.64 nM.
